The source of these data is article PMC6379965, “Expression and activity of the calcitonin receptor family in a sample of primary human high-grade gliomas” (BMC Cancer, 2019).

One experiment has as its system CGRP (CLR + RAMP1). Set-up: method as in PMID 9620797, PMID 19497285. As to conditions: receptor CGRP, ref [10], [11], [38]; cited from earlier work.
Another experiment concerns AMY1 (CTR + RAMP1). Set-up: method as in PMID 9620797, PMID 19497285. As to conditions: receptor AMY1, CTR + RAMP1; ref [10], [11], [38]; cited from earlier work.
The test system of the next experiment is AMY3 (CTR + RAMP3). On the set-up: method as in PMID 9620797, PMID 19497285. As to conditions: receptor AMY3, CTR + RAMP3; ref [10], [11], [38]; cited from earlier work.
The next experiment deals with CTR. On the set-up: method as in PMID 9620797, PMID 19497285. Particulars: receptor CTR; ref [10], [11], [38]; cited from earlier work.
In another experiment the test system is AM2 (CLR + RAMP3). On the set-up: method as in PMID 9620797, PMID 19497285. Particulars: receptor AM2, CLR + RAMP3; ref [10], [11], [38]; cited from earlier work.
The next experiment relates to SB2b cell line. The experiment in a line: cAMP accumulation, αCGRP and AM, SB2b. It counts as cell-based, human. Particulars: 30 min, 3 to 4 independent experiments in triplicate. On the procedure:
Primary patient high-grade glioma (HGG) cell lines, in vitro surrogates of glioblastoma, were developed by QIMR-Berghofer Medical Research Institute (Brisbane, Australia) and represent 3 distinct GBM subtypes: SB2b and PB1 (classical), JK2 (proneural) and WK1(mesenchymal), who supplied these directly for this study. GBM cell lines were cultured as adherent monolayers on matrigel (BD Biosciences)-coated flasks using StemPro NSC SFM serum free cell culture medium (Thermo Fisher Scientific) supplemented with 20 ng/ml EGF and 20 ng/ml FGFb, 1% D-glutamine and 1% of penicillin/ streptomycin (further referred as StemPro complete medium). Cells were cultured in 5% CO2 / 95% humidified air at 37 °C.
GBM cell lines were seeded at 38000 cells/well (SB2b) or 35,000 cells/well (PB1, JK2 and WK1) in 96-well matrigel-coated plates and incubated for 24 h at 37°C, 5% CO2 in humidified incubator in StemPro complete medium. Media was replaced with stimulation buffer (phenol red free F12 media, 0.1% BSA, 0.5 mM IBMX, pH 7.4). […] Intracellular cAMP levels in the wells were determined using Lance Ultra cAMP assay kit (Perkin Elmer) according to the manufacturer’s instructions and detected using an Envision multilabel 2103 reader. […] Data were analysed by three-parameter logistic curve and are presented as percentage of 10^− 5 M forskolin response.
A general note: cAMP levels reflect the balance of adenylyl cyclase and phosphodiesterase activity.

The test system of another experiment is AM1 (CLR + RAMP2). On the set-up: method as in PMID 9620797, PMID 19497285. As to conditions: receptor AM1, CLR + RAMP2; ref [10], [11], [38]; cited from earlier work.

In the case of `CC(C)C[C@H](NC(=O)CNC(=O)[C@H](C)NC(=O)[C@H](CC(C)C)NC(=O)[C@H](CCCNC(=N)N)NC(=O)[C@H](Cc1c[nH]cn1)NC(=O)[C@@H](NC(=O)[C@@H](NC(=O)[C@@H]1CSSC[C@H](NC(=O)[C@H](C)N)C(=O)N[C@@H](CC(=O)O)C(=O)N[C@@H]([C@@H](C)O)C(=O)N[C@@H](C)C(=O)N[C@@H]([C@@H](C)O)C(=O)N1)C(C)C)[C@@H](C)O)C(=O)N[C@@H](CC(C)C)C(=O)N[C@@H](CO)C(=O)N[C@@H](CCCNC(=N)N)C(=O)N[C@@H](CO)C(=O)NCC(=O)NCC(=O)N[C@H](C(=O)N[C@H](C(=O)N[C@@H](CCCCN)C(=O)N[C@@H](CC(N)=O)C(=O)N[C@@H](CC(N)=O)C(=O)N[C@@H](Cc1ccccc1)C(=O)N[C@H](C(=O)N1CCC[C@H]1C(=O)N[C@H](C(=O)N[C@@H](CC(N)=O)C(=O)N[C@H](C(=O)NCC(=O)N[C@@H](CO)C(=O)N[C@@H](CCCCN)C(=O)N[C@@H](C)C(=O)N[C@@H](Cc1ccccc1)C(N)=O)C(C)C)[C@@H](C)O)C(C)C)C(C)C)C(C)C` [αCGRP, Calcitonin gene related peptide], the “Peptides rank order of potency (human)” value is “αCGRP > AM ≥ intermedin > AMY ≥ sCT” with CGRP (CLR + RAMP1); “sCT ≥ AMY ≥ αCGRP > intermedin ≥ hCT > AM” with AMY1 (CTR + RAMP1); “sCT ≥ AMY > αCGRP > intermedin ≥ hCT > AM” with AMY3 (CTR + RAMP3); “sCT ≥ hCT > AMY, αCGRP > AM, intermedin” in the experiment with CTR; “AM ≥ intermedin ≥ α-CGRP > AMY > SCT” in the experiment with AM2 (CLR + RAMP3); “AM > intermedin > α-CGRP, AMY > sCT” in the experiment on AM1 (CLR + RAMP2). Further, the “cAMP response to αCGRP, adrenomedullin (and weak amylin response)” value in the experiment on SB2b cell line is recorded as “Weak responses”.
